Experimental findings from US9221796B2, “Selective NR2B antagonists” (BRISTOL-MYERS SQUIBB COMPANY, priority 2014, dated 2015) are described below.

Amino acid sequences for entries named in this document (tags omitted). Residues count along the entry.
UniProt Q00960, 27-1482: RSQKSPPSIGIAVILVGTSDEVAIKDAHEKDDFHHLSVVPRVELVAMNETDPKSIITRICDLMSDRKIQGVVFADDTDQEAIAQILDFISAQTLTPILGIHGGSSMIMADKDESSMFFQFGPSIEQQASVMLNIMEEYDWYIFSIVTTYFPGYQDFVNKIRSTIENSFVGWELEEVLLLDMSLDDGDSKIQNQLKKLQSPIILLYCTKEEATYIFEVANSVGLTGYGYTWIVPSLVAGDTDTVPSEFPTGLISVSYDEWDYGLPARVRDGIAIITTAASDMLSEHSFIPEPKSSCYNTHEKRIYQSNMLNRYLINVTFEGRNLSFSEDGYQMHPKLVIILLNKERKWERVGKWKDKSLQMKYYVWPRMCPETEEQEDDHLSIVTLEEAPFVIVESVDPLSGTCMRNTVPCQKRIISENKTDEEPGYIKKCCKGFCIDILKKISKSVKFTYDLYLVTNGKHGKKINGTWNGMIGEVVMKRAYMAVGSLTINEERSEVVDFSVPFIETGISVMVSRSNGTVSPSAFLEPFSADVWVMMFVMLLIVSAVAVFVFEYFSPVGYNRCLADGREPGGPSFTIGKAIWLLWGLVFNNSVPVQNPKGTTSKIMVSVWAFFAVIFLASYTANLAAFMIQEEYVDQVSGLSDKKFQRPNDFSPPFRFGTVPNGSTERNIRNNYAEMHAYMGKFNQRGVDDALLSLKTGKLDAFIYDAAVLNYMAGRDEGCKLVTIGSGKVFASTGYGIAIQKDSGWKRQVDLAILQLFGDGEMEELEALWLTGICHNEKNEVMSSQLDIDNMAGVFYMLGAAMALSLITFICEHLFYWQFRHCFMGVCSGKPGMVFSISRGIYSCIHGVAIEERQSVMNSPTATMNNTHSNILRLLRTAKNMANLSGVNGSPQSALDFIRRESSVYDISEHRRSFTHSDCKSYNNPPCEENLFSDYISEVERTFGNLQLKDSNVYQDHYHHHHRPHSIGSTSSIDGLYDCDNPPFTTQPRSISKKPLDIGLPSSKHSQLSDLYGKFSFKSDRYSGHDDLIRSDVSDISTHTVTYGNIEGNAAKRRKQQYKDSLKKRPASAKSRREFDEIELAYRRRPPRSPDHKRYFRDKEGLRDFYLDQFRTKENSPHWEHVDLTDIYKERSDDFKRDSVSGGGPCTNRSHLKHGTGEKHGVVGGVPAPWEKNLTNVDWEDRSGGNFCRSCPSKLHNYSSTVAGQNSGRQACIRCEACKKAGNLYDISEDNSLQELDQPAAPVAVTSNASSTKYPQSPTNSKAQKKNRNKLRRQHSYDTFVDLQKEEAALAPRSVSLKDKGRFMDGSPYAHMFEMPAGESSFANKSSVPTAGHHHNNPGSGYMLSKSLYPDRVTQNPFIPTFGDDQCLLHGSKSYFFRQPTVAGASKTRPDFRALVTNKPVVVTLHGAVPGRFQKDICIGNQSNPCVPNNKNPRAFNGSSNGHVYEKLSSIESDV

The target in the experiment is NR2B-subtype NMDA receptors (Rattus norvegicus (Rat), UniProt P35439+Q00960). Briefly: Radioligand binding assay (3H Ro 25-6981 competition, forebrain membranes). Particulars: 3H Ro 25-6981 (4 nM). The method, then:
Radioligand Binding Assay. […] Buchy D; Klingelschmidt A; Messer J; Bleuel Z; Kemp J A; Richards J G. […] Thawed brains were homogenized using a Dounce homogenizer and centrifuged at 48000×g for 20 min. The pellet was resuspended in cold buffer and homogenized again using a Dounce homogenizer. […] After incubation for 1 hr at room temperature, the membrane bound radioligand was harvested on to GF/B filter plates (treated with 0.5% PEI for 1 hr at room temperature). The filter plates were dried at 50° C. for 20 mins, incubated with microscint 20 for 10 minutes and finally, the counts were read on TopCount (Perkin Elmer). […] CPM values were converted to % inhibition and the concentration response curves were plotted using custom made software. Each experiment was repeated at least twice to obtain the final binding Ki values for experimental compounds.

As to `Cc1ccc(CN2CCC(N3CCC(c4ccc(O)cc4)C(F)(F)C3)C2=O)cc1` (single isomer, unassigned) [Example 51, P-2], the affinity, expressed as Ki, was 7.6 nM. In the case of `Cc1ccc(CN2CCC(N3CCC(c4ccc(O)cc4)C(F)(F)C3)C2=O)cc1F` (single isomer, unassigned) [Example 52, P-4, 3-(3,3-difluoro-4-(4-hydroxyphenyl)piperidin-1-yl)-1-(3-fluoro-4-methylbenzyl)pyrrolidin-2-one] it was 6.7 nM. As for `Cc1ccc(N2CCC(N3CCC(c4ccc(O)cc4)C(F)(F)C3)C2=O)cc1F` (single isomer, unassigned) [Example 55, P-1], the Ki amounted to 280 nM. The molecule `Cc1ccc(CN2CCC(N3CCC(c4ccc(O)cc4)C(F)(F)C3)C2=O)cc1` (single isomer, unassigned) [Example 51, P-3] came in with a Ki of 30 nM. The molecule `O=C1C(N2CCC(c3ccc(O)cc3)C(F)(F)C2)CCN1Cc1ccc(F)cc1` (single isomer, unassigned) [Example 54, P-2, 3-(3,3-difluoro-4-(4-hydroxyphenyl)piperidin-1-yl)-1-(4-fluorobenzyl)pyrrolidin-2-one] yielded a Ki of 8.5 nM.

Molecule `O=C1C(N2CCC(c3ccc(O)cc3)C(F)(F)C2)CCN1Cc1ccc(F)cc1` (single isomer, unassigned) [Example 54, P-3, 3-(3,3-difluoro-4-(4-hydroxyphenyl)piperidin-1-yl)-1-(4-fluorobenzyl)pyrrolidin-2-one] yielded a Ki of 110 nM. `Cc1ccc(CN2CCC(N3CCC(c4ccc(O)cc4)C(F)(F)C3)C2=O)cc1` (single isomer, unassigned) [Example 51, P-1]: the Ki amounted to 660 nM. For the molecule `Cc1ccc(CN2CC[C@@H](N3CC[C@H](c4ccc(O)cc4)[C@@H](F)C3)C2=O)cc1` [Example 46, P-2, (R)-3-((3R,4R)-3-fluoro-4-(4-hydroxyphenyl)piperidin-1-yl)-1-(4-methylbenzyl)pyrrolidin-2-one], the Ki was found to be 4.3 nM. In the case of `Cc1ccc(CN2CCC(N3CCC(c4ccc(O)cc4)C(F)(F)C3)C2=O)cc1F` (single isomer, unassigned) [Example 52, P-2, 3-(3,3-difluoro-4-(4-hydroxyphenyl)piperidin-1-yl)-1-(3-fluoro-4-methylbenzyl)pyrrolidin-2-one] it was 6.2 nM; in that of `O=C1C(N2CCC(c3ccc(O)cc3)C(F)(F)C2)CCN1Cc1ccc(F)cc1` (single isomer, unassigned) [Example 54, P-4, 3-(3,3-difluoro-4-(4-hydroxyphenyl)piperidin-1-yl)-1-(4-fluorobenzyl)pyrrolidin-2-one], 26 nM. On to `Cc1ccc(CN2CCC(N3CCC(c4ccc(O)cc4)C(F)(F)C3)C2=O)cc1F` (single isomer, unassigned) [Example 52, P-3, 3-(3,3-difluoro-4-(4-hydroxyphenyl)piperidin-1-yl)-1-(3-fluoro-4-methylbenzyl)pyrrolidin-2-one], for which the Ki was 89 nM. `O=C1C(N2CCC(c3ccc(O)cc3)C(F)(F)C2)CCN1Cc1ccc(F)cc1` (single isomer, unassigned) [Example 54, P-1, 3-(3,3-difluoro-4-(4-hydroxyphenyl)piperidin-1-yl)-1-(4-fluorobenzyl)pyrrolidin-2-one] had a Ki of 530 nM. Consider `Cc1ccc(N2CCC(N3CCC(c4ccc(O)cc4)C(F)(F)C3)C2=O)cc1F` (single isomer, unassigned) [Example 55, P-3], for which the Ki worked out at 130 nM. Under `Cc1ccc(N2CCC(N3CCC(c4ccc(O)cc4)C(F)(F)C3)C2=O)cc1F` (single isomer, unassigned) [Example 55, P-4] stands 430 nM. Under `Cc1ccc(CN2CC[C@H](N3CC[C@H](c4ccc(O)cc4)[C@@H](F)C3)C2=O)cc1` [Example 46, P-1, (S)-3-((3R,4R)-3-fluoro-4-(4-hydroxyphenyl)piperidin-1-yl)-1-(4-methylbenzyl)pyrrolidin-2-one] stands 430 nM. In the case of `Cc1ccc(N2CCC(N3CCC(c4ccc(O)cc4)C(F)(F)C3)C2=O)cc1F` (single isomer, unassigned) [Example 55, P-2] it was 32 nM; in that of `Cc1ccc(CN2CC[C@H](N3CC[C@@H](c4ccc(O)cc4)[C@H](F)C3)C2=O)cc1` [Example 46, P-3, (S)-3-((3S,4S)-3-fluoro-4-(4-hydroxyphenyl)piperidin-1-yl)-1-(4-methylbenzyl)pyrrolidin-2-one], 340 nM. `Cc1ccc(CN2CCC(N3CCC(c4ccc(O)cc4)C(F)(F)C3)C2=O)cc1` (single isomer, unassigned) [Example 51, P-4] showed an inhibitory constant (Ki) of 11 nM.

Regarding `Cc1ccc(CN2CCC(N3CCC(c4ccc(O)cc4)C(F)(F)C3)C2=O)cc1F` (single isomer, unassigned) [Example 52, P-1, 3-(3,3-difluoro-4-(4-hydroxyphenyl)piperidin-1-yl)-1-(3-fluoro-4-methylbenzyl)pyrrolidin-2-one], the Ki was found to be 690 nM.

The term Ki denotes a dissociation constant, usually derived from enzyme kinetics or from competition with a known ligand. Low values mean higher affinity, high ones lower affinity.
